# How the values were obtained:
# Amino acid sequences for entries named in this document (tags omitted). Residues count along the entry.
# UniProt P28335, 33-458 limits assumed: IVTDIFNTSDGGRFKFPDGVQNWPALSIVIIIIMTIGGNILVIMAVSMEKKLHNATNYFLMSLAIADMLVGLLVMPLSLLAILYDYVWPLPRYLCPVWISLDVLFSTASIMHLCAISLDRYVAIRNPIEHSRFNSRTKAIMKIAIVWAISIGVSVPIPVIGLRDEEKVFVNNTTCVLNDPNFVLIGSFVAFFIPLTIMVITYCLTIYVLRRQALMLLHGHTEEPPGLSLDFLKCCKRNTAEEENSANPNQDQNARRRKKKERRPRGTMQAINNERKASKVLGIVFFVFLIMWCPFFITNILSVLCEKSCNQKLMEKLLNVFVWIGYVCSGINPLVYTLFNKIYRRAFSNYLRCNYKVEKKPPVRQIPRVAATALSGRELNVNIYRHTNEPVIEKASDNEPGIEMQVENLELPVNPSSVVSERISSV
# UniProt P28223, whole entry: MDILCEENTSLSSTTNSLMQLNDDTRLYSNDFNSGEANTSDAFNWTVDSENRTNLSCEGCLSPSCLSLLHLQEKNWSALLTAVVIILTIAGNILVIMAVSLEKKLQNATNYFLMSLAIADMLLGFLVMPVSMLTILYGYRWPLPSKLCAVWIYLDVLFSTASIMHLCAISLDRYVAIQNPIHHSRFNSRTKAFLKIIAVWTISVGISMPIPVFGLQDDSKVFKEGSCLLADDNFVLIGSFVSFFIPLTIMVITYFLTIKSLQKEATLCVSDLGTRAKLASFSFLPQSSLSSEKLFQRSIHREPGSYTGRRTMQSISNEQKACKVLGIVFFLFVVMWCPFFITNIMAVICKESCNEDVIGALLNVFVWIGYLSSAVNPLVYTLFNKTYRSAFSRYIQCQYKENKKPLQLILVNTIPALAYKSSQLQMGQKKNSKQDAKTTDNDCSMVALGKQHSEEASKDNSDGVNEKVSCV
# UniProt P41595, whole entry: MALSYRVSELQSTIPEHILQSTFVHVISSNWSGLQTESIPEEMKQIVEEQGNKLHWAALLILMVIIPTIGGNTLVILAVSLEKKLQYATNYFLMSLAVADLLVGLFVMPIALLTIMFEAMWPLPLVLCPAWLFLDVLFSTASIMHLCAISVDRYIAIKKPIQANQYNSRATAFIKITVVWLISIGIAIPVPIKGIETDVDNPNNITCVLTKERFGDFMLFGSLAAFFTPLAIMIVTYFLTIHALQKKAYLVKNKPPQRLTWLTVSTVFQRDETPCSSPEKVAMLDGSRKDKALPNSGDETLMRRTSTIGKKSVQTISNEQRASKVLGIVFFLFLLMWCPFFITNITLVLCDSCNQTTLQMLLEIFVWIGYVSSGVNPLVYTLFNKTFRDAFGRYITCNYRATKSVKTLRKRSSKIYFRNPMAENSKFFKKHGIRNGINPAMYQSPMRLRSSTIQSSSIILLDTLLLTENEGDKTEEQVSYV
# 5-HT2C receptor [1] = target: T1, 5-HT2C receptor (Homo sapiens, UniProt P28335); experiment: IP accumulation assay; conditions: read-out: IP Accumulation EC50 (nM) 2C; HEK293 cells expressing recombinant 5-HT2C receptors, [3H]inositol phosphates, 2 h at 37° C.
# 5-HT2A receptor [2] = target: T2, 5-HT2A receptor (Homo sapiens, UniProt P28223); experiment: IP accumulation assay; conditions: read-out: IP Accumulation EC50 (nM) 2A, [3H]inositol phosphates
# 5-HT2B receptor [3] = target: T3, 5-HT2B receptor (Homo sapiens, UniProt P41595); experiment: IP accumulation assay; conditions: read-out: IP Accumulation EC50 (nM) 2B, [3H]inositol phosphates
# 5-HT2C receptor [4] = target: T1, 5-HT2C receptor; experiment: Radioligand binding assay with [125I]DOI; conditions: read-out: DOI Binding Ki (nM) 2C; competition with [125I]DOI, membranes of HEK293 cells expressing recombinant 5-HT2C receptors
# 5-HT2A receptor [5] = target: T2, 5-HT2A receptor; experiment: Radioligand binding assay with [125I]DOI; conditions: read-out: DOI Binding Ki (nM) 2A, competition with [125I]DOI
# 5-HT2B receptor [6] = target: T3, 5-HT2B receptor; experiment: Radioligand binding assay with [125I]DOI; conditions: read-out: DOI Binding Ki (nM) 2B, competition with [125I]DOI
# [7] = Effect of compounds on food intake in the male Sprague Dawley rat; conditions: 1 hour following administration, relative to placebo, male Sprague Dawley rats
EC50 (5-HT2C receptor [1]),EC50 (5-HT2A receptor [2]),EC50 (5-HT2B receptor [3]),Ki (5-HT2C receptor [4]),Ki (5-HT2A receptor [5]),Ki (5-HT2B receptor [6]),SMILES,cumulative food intake ([7]; 2 mg/kg PO),cumulative food intake ([7]; 5 mg/kg PO),cumulative food intake ([7]; 10 mg/kg PO)
4860 nM,> 100000 nM,> 100000 nM,–,–,–,"c1cc2c3c(c1)C1(CCC3CCNC2)CC1 (single isomer, unassigned)",–,–,–
–,–,–,29.6 nM,427 nM,647 nM,"c1cc2c3c(c1)C1(CC1)C1(CC1)CC3CCNC2 (single isomer, unassigned)",–,–,–
7.6 nM,12400 nM,1600 nM,0.708 nM,20.9 nM,53.3 nM,"Fc1ccc2c3c1C1(CC1)C1(CC1)CC3CCNC2 (single isomer, unassigned)",significantly decreased,significantly decreased,significantly decreased
> 100000 nM,> 100000 nM,> 100000 nM,–,–,–,"CC1(C)CCC2CCNCc3cccc1c32 (single isomer, unassigned)",–,–,–

# From patent publication US11395824B2, “5-HT2C receptor agonists and compositions and methods of use” (Arena Pharmaceuticals, Inc., priority 2015, dated 2022)
